Laboratory results taken from article PMC8958504 (Journal of Medicinal Chemistry, 2022).

Tested on: mouse hippocampal slices
Conditions: 1 μM, OA 1 μM, 6 h

C#CCn1nc(/C=C/c2ccc(OC)cc2)oc1=O [4e, 5-[(E)-2-(4-Methoxyphenyl)ethenyl]-3-(prop-2-yn-1-yl)-1,3,4-oxadiazol-2(3H)-one]
cell death (PI uptake fluorescence): reduced cell death
